According to paper PMC8397948, “Effect of Selected Antidepressants on Placental Homeostasis of Serotonin: Maternal and Fetal Perspectives” (Pharmaceutics, 2021):

How the values were obtained:
[1] = pregnant women or women, cited from earlier work; for Cmax: read-out: Cmax (maximum steady-state plasma concentration)
[2] = tested on: placental efflux transporters; assay: Dually perfused rat term placenta, closed-circuit setup: fetal/maternal concentration ratio; conditions: GF 120918 2 µM (P-gp and BCRP inhibitor), drug 1 µM
[3] = Published plasma concentrations and fetal-to-maternal ratios in (pregnant) women; type: in vivo, human; conditions: matches Ca x F/M ratio of published values

SMILES | Ca (average maternal plasma concentration) [1] [nM] | Cmax [1] [nM] | Effect of GF 120918 on reduction of drug concentration in fetal circulation (efflux) [2] | Ca;fetal (average fetal plasma concentration) [3] [nM]
CN[C@H]1CC[C@@H](c2ccc(Cl)c(Cl)c2)c2ccccc21 [Sertraline, sertraline hydrochloride] | 104 | 1300 | not inhibited | –
CNCCC(Oc1ccc(C(F)(F)F)cc1)c1ccccc1 (stereo not drawn) [Fluoxetine, fluoxetine hydrochloride] | 557 | 1900 | – | 368

Structures can show the parent of a compound that is named as a salt.
